Experimental data published in US9050334B2, “MIF inhibitors and their uses” (INNOV88 LLC, priority 2010, dated 2015).

Sequences of proteins named here, by UniProt entry; tags and fusion partners are left off. Residues count along the entry.
UniProt P14174, 2-115 limits assumed: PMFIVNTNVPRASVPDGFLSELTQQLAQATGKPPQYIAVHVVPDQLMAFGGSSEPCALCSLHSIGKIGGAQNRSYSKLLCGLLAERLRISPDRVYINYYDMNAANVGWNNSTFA

Target: Native human MIF (Homo sapiens, UniProt P14174)
Experiment: MIF tautomerase activity assay with hydroxyphenyl pyruvic acid (HPP) substrate
Details: read-out: Tautomerase IC50, absorbance at 300 nm

`Cn1c(=O)c(C#N)c(NC2CN(S(=O)(=O)c3cccs3)C2)c2ccccc21` showed an IC50 of 10 to 100 µM.
